Laboratory results as given in IntAct's records for PubMed 19166854.

B1: RAC-alpha serine/threonine-protein kinase (Homo sapiens), P31749 (parent)
chain: MSDVAIVKEGWLHKRGEYIKTWRPRYFLLKNDGTFIGYKERPQDVDQREAPLNNFSVAQCQLMKTERPRPNTFIIRCLQWTTVIERTFHVETPEEREEWTTAIQTVADGLKKQEEEEMDFRSGSPSDNSGAEEMEVSLAKPKHRVTMNEFEYLKLLGKGTFGKVILVKEKATGRYYAMKILKKEVIVAKDEVAHTLTENRVLQNSRHPFLTALKYSFQTHDRLCFVMEYANGGELFFHLSRERVFSEDRARFYGAEIVSALDYLHSEKNVVYRDLKLENLMLDKDGHIKITDFGLCKEGIKDGATMKTFCGTPEYLAPEVLEDNDYGRAVDWWGLGVVMYEMMCGRLPFYNQDHEKLFELILMEEIRFPRTLGPEAKSLLSGLLKKDPKQRLGGGSEDAKEIMQHRFFAGIVWQHVYEKKLSPPFKPQVTSETDTRYFDEEFTAQMITITPPDQDDSMECVDSERRPHFPQFSYSASGTA

Variants of: B1
Settings: with mdm2_human MDM2

Row | Variant | effect of a mutation on the interaction
1 | S473D | increasing interaction
